The source of these data is PMC6195125 (European journal of medicinal chemistry, 2018).

Like-named read-outs stand apart in the source and are kept apart here. Some results are limits rather than exact numbers.

In general, IC50 refers to the concentration that inhibits the measured activity by half.

One test concerns P. falciparum 3D7. To be noted: read-out: P.falciparum IC50 Pf3D7; asexual blood stage, drug sensitive 3D7 line; mean (±SD), three independent assays.
Test [1] deals with normal human neonatal foreskin fibroblasts (NFFs). The experiment in a line: Cytotoxicity against neonatal foreskin fibroblasts. Type of test: cell-based. To be noted: Fibroblast, read-out: NFF IC50.
The next test concerns HepG2-A16-CD81EGFP cells. The experiment in a line: HepG2 cytotoxicity bioluminescence assay. Conditions: Homo sapiens. Type of test: cell-based.
Test [2] relates to normal human neonatal foreskin fibroblasts (NFFs). To be noted: read-out: NFF IC50; data previously reported; cited from earlier work.

As for “Methyl 4-((3,5-dimethyl-N-(2-oxo-2-(p-tolylamino)ethyl)benzamido)methyl)benzoate [Compound 1m]”, the half-maximal inhibitory concentration (IC50) in the test on P. falciparum 3D7 turned out to be 0.033 µM.

Take `CC(C)c1ccc(C(=O)N(CC(=O)NC2CCCCC2)Cc2ccc(C(=O)NO)cc2)cc1` [Compound 1u, N-(2-(Cyclohexylamino)-2-oxoethyl)-N-(4-(hydroxycarbamoyl)benzyl)-4-isopropylbenzamide]: the half-maximal inhibitory concentration (IC50) in test [1] is over 4 µM.

As to `Cc1ccc(NC(=O)CN(Cc2ccc(C(=O)NO)cc2)C(=O)c2cccc(N(C)C)c2)cc1` [Compound 1n, 3-(Dimethylamino)-N-(4-(hydroxycarbamoyl)benzyl)-N-(2-oxo-2-(p-tolylamino)-ethyl)benzamide], the IC50 in test [1] is over 10 µM.

As to `CCCCNC(=O)CN(Cc1ccc(C(=O)NO)cc1)C(=O)c1cc(C)cc(C)c1` [Compound 1x, N-(2-(Butylamino)-2-oxoethyl)-N-(4-(hydroxycarbamoyl)benzyl)-3,5-dimethylbenzamide], in test [1], the IC50 was over 10 µM.

On to `CC(C)(C)NC(=O)CN(Cc1ccc(C(=O)NO)cc1)C(=O)c1cccc2ccccc12` [Compound 1c], for which, in test [1], the IC50 was over 10 µM.

Regarding `Cc1cccc(C(=O)N(CC(=O)NC2CCCCC2)Cc2ccc(C(=O)NO)cc2)c1` [Compound 1s, N-(2-(Cyclohexylamino)-2-oxoethyl)-N-(4-(hydroxycarbamoyl)benzyl)-3-methylbenzamide], the IC50 in test [1] was over 10 µM.

As to `Cc1cc(C)cc(C(=O)N(CC(=O)NC(C)(C)C)Cc2ccc(C(=O)NO)cc2)c1` [Compound 1e], in test [1], the half-inhibitory concentration (IC50) was over 10 µM.

For `O=C(CN(Cc1ccc(C(=O)NO)cc1)C(=O)c1ccccc1)NC1CCCCC1` [Compound 1f], the IC50 in test [1] was over 10 µM.

On to `Cc1ccc(C(=O)N(CC(=O)NC2CCCCC2)Cc2ccc(C(=O)NO)cc2)cc1` [Compound 1t, N-(2-(Cyclohexylamino)-2-oxoethyl)-N-(4-(hydroxycarbamoyl)benzyl)-4-methylbenzamide], for which the half-maximal inhibitory concentration (IC50) in test [1] is over 3 µM.

For the molecule `CCCCNC(=O)CN(Cc1ccc(C(=O)NO)cc1)C(=O)c1cccc(N(C)C)c1` [Compound 1w, N-(2-(Butylamino)-2-oxoethyl)-3-(dimethylamino)-N-(4-(hydroxycarbamoyl)benzyl)-benzamide], the half-maximal inhibitory concentration (IC50) in test [1] is over 10 µM.

As for `Cc1cc(C)cc(C(=O)N(CC(=O)NC2CCCCC2)Cc2ccc(C(=O)NO)cc2)c1` [Compound 1i], in test [1], the IC50 is over 10 µM.

Take `Cc1ccc(C(=O)N(CC(=O)NC2CCCCC2)Cc2ccc(C(=O)NO)cc2)cc1C` [Compound 1q, N-(2-(Cyclohexylamino)-2-oxoethyl)-N-(4-(hydroxycarbamoyl)benzyl)-3,4-dimethyl-benzamide]: in test [1], the IC50 is over 10 µM.

`CN(C)c1cccc(C(=O)N(CC(=O)NC2CCCCC2)Cc2ccc(C(=O)NO)cc2)c1` [Compound 1p, N-(2-(Cyclohexylamino)-2-oxoethyl)-3-(dimethylamino)-N-(4-(hydroxycarbamoyl)-benzyl)benzamide]: the IC50 in test [1] is over 10 µM.

For `Cc1ccccc1C(=O)N(CC(=O)NC1CCCCC1)Cc1ccc(C(=O)NO)cc1` [Compound 1r, N-(2-(Cyclohexylamino)-2-oxoethyl)-N-(4-(hydroxycarbamoyl)benzyl)-2-methylbenzamide], the IC50 in test [1] is over 10 µM.

On to `O=C(CN(Cc1ccc(C(=O)NO)cc1)C(=O)c1cccc2ccccc12)NC1CCCCC1` [Compound 1g], for which the IC50 in test [1] was over 10 µM; in the test on HepG2-A16-CD81EGFP cells (HepG2, 48 h, read-out: HepG2 IC50) it was over 50 µM; with HepG2-A16-CD81EGFP cells (HepG2, read-out: HepG2 IC50), over 50 µM.

Take `CCCCNC(=O)CN(Cc1ccc(C(=O)NO)cc1)C(=O)c1ccc(N(C)C)cc1` [Compound 1v, N-(2-(Butylamino)-2-oxoethyl)-4-(dimethylamino)-N-(4-(hydroxycarbamoyl)benzyl)-benzamide]: the half-maximal inhibitory concentration (IC50) in test [1] was over 2 µM.

Take `Cc1ccc(C(=O)N(CC(=O)NC(C)(C)C)Cc2ccc(C(=O)NO)cc2)cc1C` [Compound 1a]: the half-inhibitory concentration (IC50) in test [1] was over 10 µM.

For the molecule `Cc1ccc(NC(=O)CN(Cc2ccc(C(=O)NO)cc2)C(=O)c2ccccc2)cc1` [Compound 1j], in test [1], the IC50 is over 10 µM.

As for `CC(C)(C)NC(=O)CN(Cc1ccc(C(=O)NO)cc1)C(=O)c1ccccc1` [Compound 1b], the IC50 in test [1] is over 10 µM.

In the case of `O=C(CCCCCCC(=O)Nc1ccccc1)NO` [SAHA, suberoylanilide hydroxamic acid], the IC50 in test [2] was 4.9 µM.

On to `CN(C)c1cccc(C(=O)N(CC(=O)NC(C)(C)C)Cc2ccc(C(=O)NO)cc2)c1` [Compound 1o, N-(2-(tert-Butylamino)-2-oxoethyl)-3-(dimethylamino)-N-(4-(hydroxycarbamoyl)-benzyl)benzamide], for which the IC50 in test [1] is over 10 µM.
